The record followed here is ChEMBL document CHEMBL2177012, “Inhibitor of ovarian cancer cells growth by virtual screening: a new thiazole derivative targeting human thymidylate synthase” (J Med Chem, 2012).

Protein sequences, listed by entry. Tags and fused reporters are not part of them. Lines headed by an entry give the natural chain unless they say otherwise; changes in a name come on top.
UniProt P04818: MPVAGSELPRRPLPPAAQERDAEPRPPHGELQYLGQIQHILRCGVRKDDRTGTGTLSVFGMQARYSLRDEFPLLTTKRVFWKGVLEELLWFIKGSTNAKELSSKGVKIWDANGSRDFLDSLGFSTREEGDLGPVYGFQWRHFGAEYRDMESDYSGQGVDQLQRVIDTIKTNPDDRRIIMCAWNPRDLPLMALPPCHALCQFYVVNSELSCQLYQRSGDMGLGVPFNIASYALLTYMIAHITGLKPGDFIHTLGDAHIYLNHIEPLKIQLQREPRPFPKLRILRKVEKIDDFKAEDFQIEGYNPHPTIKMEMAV

The test has as its target Thymidylate synthase (Homo sapiens, UniProt P04818). Nature of the test: Inhibition of human thymidylate synthase expressed in Escherichia coli incubated for 1 hr assessed as increase in mTHF Km value by spectrophotometry based Lineweaver-Burk method relative to untreated control.

As to `O=C(CC1S/C(=N\N=C\c2ccccc2O)N=C1O)Nc1cccc(C(F)(F)F)c1` (stereo unspecified), the fold change (FC) was 3.5.
